Measured values reported in patent US10874669B2 (WAYNE STATE UNIVERSITY, priority 2018, dated 2020).

Sequences of proteins named here, by UniProt entry; tags and fusion partners are left off. A change or cut given only in a name is not applied to a line headed by its entry.
UniProt P61169, whole entry: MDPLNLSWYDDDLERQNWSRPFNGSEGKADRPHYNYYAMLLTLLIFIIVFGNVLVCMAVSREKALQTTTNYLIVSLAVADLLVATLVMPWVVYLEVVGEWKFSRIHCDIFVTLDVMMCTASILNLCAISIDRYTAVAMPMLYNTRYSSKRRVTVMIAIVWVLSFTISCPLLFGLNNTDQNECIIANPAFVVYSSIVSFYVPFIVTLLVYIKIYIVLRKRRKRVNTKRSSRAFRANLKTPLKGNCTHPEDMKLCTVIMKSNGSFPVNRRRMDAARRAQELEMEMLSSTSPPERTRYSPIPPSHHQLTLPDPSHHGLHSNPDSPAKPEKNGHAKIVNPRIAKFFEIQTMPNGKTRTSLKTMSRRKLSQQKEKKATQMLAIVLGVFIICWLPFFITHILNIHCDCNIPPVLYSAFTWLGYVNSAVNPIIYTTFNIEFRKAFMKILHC

Target: cloned D2L receptors (Rattus norvegicus (Rat), UniProt P61169)
Assay: [3H]spiperone displacement, cloned D2L receptors in HEK cells
Type: binding
Settings: means±SEM for 3 experiments
Description: The following table provides inhibition constants for displacing [3H]spiperone binding to the cloned D2L and D3 receptors expressed in HEK cells. […] NR=Not repeated.

Question: For CCCN(CCCC1(O)C=CC(O)=CC1)C1CCc2nc(N)sc2C1 (stereo not shown) [Compound 54, 4-(3-((2-Amino-4,5,6,7-tetrahydrobenzo[d]thiazol-6-yl)(propyl)amino)propyl)-benzene-1,4-diol], which Ki is on record?
Answer: 499 ± 16 nM
